From patent US20220227782A1, “COMPOUND FOR INHIBITING RORyt ACTIVITY, PREPARATION METHOD THEREFOR AND APPLICATION THEREOF” (CELLREGEN (BEIJING) LIFE SCIENCE AND TECHNOLOGY CO., LTD., priority 2019, published 2022) come the findings set out here.

The chains behind the UniProt entries cited, without tags or fusion partners. Residues count along the entry.
UniProt P51449, 269-508 limits assumed: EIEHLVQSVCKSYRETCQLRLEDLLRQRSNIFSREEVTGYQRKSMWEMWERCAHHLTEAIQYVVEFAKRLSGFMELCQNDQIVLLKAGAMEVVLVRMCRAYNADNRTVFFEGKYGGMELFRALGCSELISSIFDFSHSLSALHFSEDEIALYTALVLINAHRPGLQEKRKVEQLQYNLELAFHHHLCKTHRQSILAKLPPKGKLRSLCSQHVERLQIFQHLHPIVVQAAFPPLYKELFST

A word on the CC50: it is the concentration that lowers cell viability or growth by half. A low value points to harm at low concentration. For orientation: EC50 means the concentration giving half of the maximal effect. A high value points to weaker potency.

The structures appear in SMILES notation.

In one data set the test system is RORγt-LBD+-Jurkat cells. Put plainly: CC50 test, median cytotoxic concentration against RORγt-LBD+-Jurkat cells. In kind it is cell-based. The source says:
EC50 and CC50 tests: EC50 (half maximal (50%) effective concentration) is a half maximal effective concentration against RORγt-LBD+-Jurkat cells, and CC50 (median (50%) cytotoxic concentration) is a median cytotoxic concentration against RORγt-LBD+-Jurkat cells.

Another data set has as its target RORγt (Homo sapiens, UniProt P51449). Nature of the data set: EC50 test, inhibition of RORγt transcription activity (luciferase activity reporter system) in RORγt-LBD+-Jurkat cells. Particulars: for EC50: half maximal effective concentration against RORγt-LBD+-Jurkat cells.
Data set [1] relates to RORγt, IL17A, IL-17F mRNA. Nature of the data set: mRNA expression of RORγt, IL17A and IL-17F in Th17 cell differentiation in vitro. Conditions: FIG. 22, 1.56, 3.12 and 6.25 μM compound vs solvent group.
The subject of the next data set is IL-17A. Put plainly: Intracellular protein expression of IL-17A (flow cytometer), Th17 cells. Conditions: FIG. 21; 1.56, 3.12 and 6.25 μM compound vs solvent group. The source says:
The compound for inhibiting RORγt activity as described above may be used in preparation of a therapeutic formulation for the treatment of autoimmune diseases, in preparation of a formulation that inhibits formation of a Th17 cell, in preparation of a formulation that inhibits the RORγt transcription activity, or in preparation of a formulation that inhibits transcription and expression of IL17A gene and/or IL17F gene. The compounds having the structural formula (A) has a good inhibitory effect on RORγt activity. […] Therefore, the compound may be used to produce a formulation of corresponding activity inhibitor, and provide a leading structure for the development of therapeutic drugs for autoimmune diseases.
It can be seen from FIG. 21 that Compounds 6, 10, 22, 28, and 31 have significant inhibitory effects. In the figure, the results of solvent group, 1.56 μM compound group, 3.12 μM compound group, and 6.25 μM compound group are shown from left to right.
A general note: A flow cytometer gives signals particle by particle.

For the compound `Cc1ccc(NC(=O)Cc2nc(Sc3nnnn3-c3ccccc3)c3c4c(sc3n2)CCCC4)nc1`, in the data set on RORγt-LBD+-Jurkat cells, the CC50 is 4.01 µM. Further, the EC50 at RORγt is over 10 µM.
On to `O=C(O)Cc1nc(Sc2nnnn2-c2ccccc2)c2c3c(sc2n1)CCCC3`, for which the CC50 in the data set on RORγt-LBD+-Jurkat cells is over 10 µM. On RORγt, this compound had an EC50 of over 10 µM.
`CCOC(=O)Cc1nc(Sc2nnnn2-c2ccccc2)c2c3c(sc2n1)CCCC3`: the “inhibition of mRNA expression of RORγt, IL17A and IL-17F (in words)” value in data set [1] is listed as “significant inhibitory effects”. Moreover, the “inhibition of intracellular protein expression of IL-17A (in words)” value in the data set on IL-17A is on record as “significant inhibitory effects”. Further, in the data set on RORγt-LBD+-Jurkat cells, the CC50 was 3.35 µM. On RORγt (FIG. 20), the “inhibiting RORγt transcription activity (in words)” value is listed as “significant effect”. The compound also displayed an EC50 on RORγt of 0.14 µM.
Take `Cc1nc(Sc2nnnn2-c2ccccc2)c2c3c(sc2n1)CC(C)(C)CC3`: in data set [1], the “inhibition of mRNA expression of RORγt, IL17A and IL-17F (in words)” value is listed as “significant inhibitory effects”. Also, in the data set with IL-17A, the “inhibition of intracellular protein expression of IL-17A (in words)” value is recorded as “significant inhibitory effects”. Besides, the CC50 in the data set with RORγt-LBD+-Jurkat cells was found to be 7.7 µM. Moreover, on RORγt, the EC50 was 4.58 µM.
In the case of `CCOC(=O)C1CCc2c(sc3nc(C)nc(Sc4nnnn4-c4ccccc4)c23)C1` (stereo not drawn), in the data set on RORγt-LBD+-Jurkat cells, the CC50 is over 10 µM. This compound came in with an EC50 at RORγt of 6.15 µM.
